Earlier results as cited in patent US11357232B2, “Methods of improving soil health, growth and vigor of perennial grass communities” (Edaphix, LLC, priority 2013, dated 2022).

Test system: French marigold
Details: in vivo; cited from earlier work

Substance: iron
- concentration inducing micro-nutrient toxicity: 2000 ng/mL
